Cneo AK release – causes C. neoformans cell lysis. actives 0.2% (n = 360,000). AID 651654. lysis activity, % at 15 µM. adenylate kinase release luminescence, 4 h; normalised: neutral wells 0, clomiphene wells 100;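 active means mean lysis activity across replicates of at least 80%, whatever share of replicates individually reach that level; inactive means mean lysis activity below 80%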
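Schedule: static 4 h at 37 °C with compound, 1 h detection; system: C. neoformans cells; benchmarks: Clomiphene as positive control; buffer or medium: fresh YPD medium; measure: luminescence rise reflecting yeast cell lysis; measured by: luminescent adenylate kinase detection reagent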
Yeast UUG start – yeast start codon fidelity modulation | S. cerevisiae UUG-firefly luciferase reporter, luminescence/redox ratio | activity score, % at 18.7 µM | 0.13% of 350,000 active | AID 602363;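 active means replicate mean at a twofold rise or more, about +100% in these data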;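 further: firefly luciferase made from a UUG start codon reports start codon fidelity; reporter light over untreated wells divided by growth signal over untreated wells; some hits fall short of that in this replicate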
miR122 inh – blocks miR-122 activity in Huh7 sensor cells; Huh7 miR-122 Renilla luciferase sensor, 48 h; neutral wells = 0, positive control = 100; activation (reporter increase), % at 12.5 µM; actives 0.3% (n = 340,000);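 active means mean replicate activation score at least 90 and every replicate individually at or above 90; inconclusive means only one of the two criteria met; inactive means neither criterion met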;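 further: higher luciferase means less miR-122 activity so hits act as miR-122 inhibitors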
FN deposition inh – fibronectin deposition inhibition | AH1F fibroblasts, Alexa488-fibronectin deposition fluorescence, overnight | inhibition, % at 12.6 µM | actives 0.086% (n = 350,000) | AID 743247;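 active means mean inhibition across replicates of 30% or more, regardless of how many single replicates reach that level; inconclusive means mean under 30% yet at least half of replicates reach 30%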
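Material: AH1F fibroblasts assembling fluorescent fibronectin matrix; amount: 10000 AH1F cells/well; medium: DMEM, 2% serum; reagent: Alexa488-fibronectin, 24 nM final in well; dosing: single compound dose, delivered by pin transfer; incubation: 1 h adhesion, overnight exposure; detection: fluorescence after three HBSS washes, excitation 485 nm, emission 525 nm; measure: fibronectin deposition inhibition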
Env fusion inh – HIV envelope-mediated fusion inhibition | HeLa-JRFL Env/CEM21 cell fusion, luciferase | inhibition, % at 12.3 µM | actives 1.1% (n = 360,000) | AID 651610;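 active means mean replicate inhibition score of at least 50 and every replicate individually at or above 50; inconclusive means only one of the two criteria met; inactive means mean below 50 and not all replicates reaching 50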
PGC1a acetyl inh – modulators of PGC1a acetylation. inhibition, % at 15.6 µM. U2OS PGC1a acetylation, AlphaScreen anti-acetyl-lysine; with virally co-expressed GCN5 acetyltransferase. actives 0.17% (n = 350,000). AID 651687;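 active means every replicate shows inhibition of at least 40%; inconclusive means mean inhibition at least 40% but some replicate below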
Of the large screens only hits and unclear results are named; the others gave an inactive call; [ ] = remark or other dose. Only some compounds are listed: those with a hit (about 1.5% of all), similar ones and a draw of the others.

COc1ccc2c(c1)[C@@H](NC(=O)C(F)(F)F)[C@@H]1CCCC[C@]21c1ccccc1	none (no result: Cneo AK release, Yeast UUG start, miR122 inh, PGC1a acetyl inh)
COc1cc2c(c(OC)c1OC)[C@@]1(c3ccccc3)CCCC[C@H]1[C@@H]2NC(=O)C(F)(F)F	Env fusion inh 87 (no result: Cneo AK release, Yeast UUG start, miR122 inh, PGC1a acetyl inh)
O=C(CCNS(=O)(=O)c1cccc2nonc12)NC1CCCc2ccccc21 (stereo not given)	FN deposition inh 36
CCC(=O)N(C)C[C@H]1Oc2cc(C#Cc3ccccn3)ccc2S(=O)(=O)N([C@@H](C)CO)C[C@H]1C	none
CCS(=O)(=O)c1ncc(Cl)c(C(=O)Nc2ccc(S(=O)(=O)N3CCC(C)CC3)cc2)n1	FN deposition inh 58, Env fusion inh 65 (no result: PGC1a acetyl inh)
COc1ccccc1NC(=O)c1nc(S(=O)(=O)Cc2ccccc2)ncc1Cl	FN deposition inh 42
CCOC(=O)c1ccc(NC(=O)c2nc(S(=O)(=O)Cc3ccccc3)ncc2Cl)cc1	FN deposition inh 47, Env fusion inh inconclusive
COC(=O)c1ccc(NC(=O)c2nc(S(=O)(=O)Cc3cccc(C)c3)ncc2Cl)cc1	FN deposition inh 53 (no result: PGC1a acetyl inh)
CC(=O)Nc1ccc(NC(=O)c2nc(S(=O)(=O)Cc3cccc(C)c3)ncc2Cl)cc1	none (no result: miR122 inh, PGC1a acetyl inh)
CC1(C)Cc2c(C#N)c(N3CCN(C(=O)c4ccccc4)CC3)nc(Cc3ccccc3)c2CO1	none (no result: FN deposition inh, Env fusion inh)
CCOc1ccccc1NC(=O)c1nc(S(=O)(=O)Cc2ccccc2)ncc1Cl	none
CCc1ccc(NC(=O)c2nc(S(=O)(=O)Cc3ccccc3)ncc2Cl)cc1	FN deposition inh 51, Env fusion inh inconclusive (no result: PGC1a acetyl inh)
C[C@@H]1CN([C@H](C)CO)S(=O)(=O)c2ccc(C#CC3(O)CCCC3)cc2O[C@@H]1CN(C)C	none
COc1cc(/C=C/C(=O)N2CCOCC2)ccc1OCc1ccccc1	none
O=C(C1=C(c2ccccc2)C(=O)c2ccccc2C1=O)c1ccccc1	Env fusion inh 155 (no result: Cneo AK release, Yeast UUG start, miR122 inh, PGC1a acetyl inh)
COC1=C(c2ccccc2)C(=O)c2ccccc2C1=O	none (no result: Cneo AK release, Yeast UUG start, miR122 inh, PGC1a acetyl inh)
CSc1ccccc1C(=O)Nc1cccc(N(C)S(C)(=O)=O)c1	none (no result: FN deposition inh, Env fusion inh)
O=C1C=CN(C2OC(CO)C(O)C2O)C(=O)C1 (stereo not given)	Env fusion inh 65 (no result: Cneo AK release, Yeast UUG start, miR122 inh, FN deposition inh, PGC1a acetyl inh)
CCOC(=O)CC(NC(=O)CCS(=O)(=O)c1ccc2c(c1)n(C)c(=O)c(=O)n2C)c1ccc(C)cc1 (stereo not given)	none
COc1ccc(C)cc1NC(=O)CSc1nnc(CC(=O)Nc2cccc(C(F)(F)F)c2)n1C	Env fusion inh 80
COc1ccccc1NC(=O)CSc1nnc(CC(=O)Nc2cccc(C(F)(F)F)c2)n1C	none
O=C(c1ccco1)N1CCN(C(=S)NCc2ccc(F)cc2)CC1	none
O=C(Nc1nc2ccccc2s1)c1cc(-c2ccccc2)nn1-c1ccccc1	none (no result: Env fusion inh)
CC(=O)c1sc(NC(=O)c2cc(-c3ccccc3)nn2-c2ccccc2)nc1C	Cneo AK release 81
Cc1cccc(S(=O)(=O)Nc2cc(Cl)ccc2N2CCOCC2)c1	none
C(=N\Nc1nncc2ccccc12)/c1ccccn1	Env fusion inh 84
Cn1c(CC(=O)Nc2ccccc2)nnc1SCC(=O)Nc1ccc(N2CCOCC2)cc1	none (no result: miR122 inh, PGC1a acetyl inh)
O=C(Nc1ccc(F)cc1F)c1cccc(C(=O)Nc2ccc(F)cc2F)n1	Env fusion inh 58 (no result: miR122 inh, FN deposition inh, PGC1a acetyl inh)
O=C(Nc1ccc(F)cc1F)c1csc(-c2ccccc2)n1	none (no result: Cneo AK release, Yeast UUG start, miR122 inh)
Cc1cc(C)n(C(=O)c2ccc(S(=O)(=O)NCC3CCCO3)cc2)n1 (stereo not given)	none (no result: FN deposition inh, Env fusion inh)
COc1ccc(S(=O)(=O)Nc2cccc3c2O[C@H](CN(C)Cc2ccc(C(F)(F)F)cc2)[C@@H](C)CN([C@@H](C)CO)C3=O)cc1	none
Cc1noc(C)c1S(=O)(=O)Nc1cccc2c1O[C@H](CN(C)Cc1ccc(C(F)(F)F)cc1)[C@H](C)CN([C@H](C)CO)C2=O	Env fusion inh 59[16.7 µM]
C[C@@H]1CN([C@@H](C)CO)C(=O)c2cccc(NS(=O)(=O)c3ccc(F)cc3)c2O[C@H]1CN(C)Cc1ccc(C(F)(F)F)cc1	none (no result: FN deposition inh)
C[C@H](CO)N1C[C@H](C)[C@H](CN(C)Cc2ccc(C(F)(F)F)cc2)Oc2c(NS(=O)(=O)c3ccc(Cl)cc3)cccc2C1=O	none
Cc1noc(C)c1S(=O)(=O)Nc1cccc2c1O[C@@H](CN(C)Cc1ccc(C(F)(F)F)cc1)[C@@H](C)CN([C@H](C)CO)C2=O	none
COc1ccc(S(=O)(=O)Nc2cccc3c2O[C@@H](CN(C)Cc2ccc(C(F)(F)F)cc2)[C@H](C)CN([C@H](C)CO)C3=O)cc1	miR122 inh 102[16.7 µM]
C[C@@H]1CN([C@H](C)CO)C(=O)c2cccc(NS(=O)(=O)c3ccc(F)cc3)c2O[C@@H]1CN(C)Cc1ccc(C(F)(F)F)cc1	Env fusion inh 77[16.7 µM] (no result: FN deposition inh)
C[C@H]1CN([C@@H](C)CO)C(=O)c2cccc(NS(=O)(=O)c3ccc(Cl)cc3)c2O[C@@H]1CN(C)Cc1ccc(C(F)(F)F)cc1	Env fusion inh 57[16.7 µM]
Cc1ccc(C)n1-c1nn(S(=O)(=O)c2cccc3cccnc23)c2cccc(F)c12	none
C[C@@H]1CCCCO[C@H](CN(C)Cc2ccccc2)[C@H](C)CN([C@@H](C)CO)C(=O)c2cc(NC(=O)NC3CCCCC3)ccc2O1	none (no result: FN deposition inh)
CNC[C@H]1Oc2ccc(NC(=O)C3CCCCC3)cc2C(=O)N([C@H](C)CO)C[C@H]1C	none
C[C@@H]1CN([C@@H](C)CO)C(=O)c2cc(NC(=O)c3ccccc3)ccc2O[C@@H](C)CCCCO[C@H]1CN(C)C(=O)Nc1cccc2ccccc12	Env fusion inh 60[16.7 µM]
C[C@H](CO)N1C[C@H](C)[C@H](CN(C)C(=O)Nc2cccc3ccccc23)OCCCC[C@H](C)Oc2ccc(NC(=O)c3ccccc3)cc2C1=O	none
C[C@H]1CCCCO[C@H](CN(C)C(=O)Nc2cccc3ccccc23)[C@@H](C)CN([C@@H](C)CO)C(=O)c2cc(NC(=O)NC3CCCCC3)ccc2O1	Env fusion inh 61[16.7 µM]
C[C@@H]1CN([C@@H](C)CO)C(=O)c2cc(NC(=O)NC3CCCCC3)ccc2O[C@@H](C)CCCCO[C@H]1CN(C)C(=O)Nc1cccc2ccccc12	none
COc1ccc(CNC(=O)CN(Cc2ccc(Cl)cc2)S(=O)(=O)c2ccccc2)cc1	Env fusion inh 59
COc1ccc(S(=O)(=O)N(CCC(=O)O)Cc2ccccc2)cc1	none
COc1ccc(CN(Cc2cccn2C)S(=O)(=O)c2ccccc2)cc1	PGC1a acetyl inh 74 (no result: Cneo AK release, Yeast UUG start, miR122 inh)
c1cc(-c2nnc3sc(C4CCCCC4)nn23)ccn1	Env fusion inh 63
COc1ccccc1-c1nnc2sc(C3CCCCC3)nn12	none (no result: Cneo AK release, Yeast UUG start)
N#Cc1c(OCC(=O)c2ccccc2)nc2c(c1-c1ccco1)CCc1ccccc1-2	none (no result: FN deposition inh)
CCOC(=O)COc1nc2c(c(-c3ccco3)c1C#N)CCc1ccccc1-2	Env fusion inh 57
